The test addresses T1, human 5-HT2C (Homo sapiens, UniProt P28335).
T1 construct: expressed in transfected cells; membranes prepared
The test is described as follows: Receptor binding assay, inhibition of [3H]-ligand binding to human 5-HT2C. Particulars: radioligand Kd at human 5-HT2C, CHO; saturation (Scatchard) and kinetic analysis. Here is the method: Cells stably expressing the human homologs of the receptors (dopamine D2L, serotonin 5HT2A and 5HT2C, α1A adrenergic; cloned and expressed at Hoechst Marion Roussel; Grandy et al., 1989: Monsma et al., 1993; Schwinn et al., 1995) were grown: cell membranes were prepared, and kept frozen until used (Kongsamut et al., 1996). The relevance of these binding sites has been extensively discussed in the literature (see for example: Carlsson & Carlsson. 1990; Creese et al., 1976; Gorman & Vargas, 1995; Meltzer et al., 1989). All binding parameters were optimized at Hoechst Marion Roussel; ligand KdS were determined using both saturation analysis (Scatchard) as well as kinetic analysis (association and dissociation rates). Each batch of membrane was validated by checking the ligand Kd, and rank order of potency of selected standard compounds. […]
Membranes were rapidly thawed and diluted to an appropriate concentration (between 20 - 150 µg protein/assay point depending on receptor expression level) in Tris buffer and homogenized. […] Microscint scintillation cocktail (40 µl) were added and the filter plates were counted in a Packard Top Count scintillation counter. Data were analyzed to determine Ki's for compounds of interest (Prusoff & Cheng, […]).Table: Receptor Binding Parameters. […]

Protein sequences, listed by entry. Tags and fused reporters are not part of them. Residues count along the entry.
UniProt P28335, 33-458: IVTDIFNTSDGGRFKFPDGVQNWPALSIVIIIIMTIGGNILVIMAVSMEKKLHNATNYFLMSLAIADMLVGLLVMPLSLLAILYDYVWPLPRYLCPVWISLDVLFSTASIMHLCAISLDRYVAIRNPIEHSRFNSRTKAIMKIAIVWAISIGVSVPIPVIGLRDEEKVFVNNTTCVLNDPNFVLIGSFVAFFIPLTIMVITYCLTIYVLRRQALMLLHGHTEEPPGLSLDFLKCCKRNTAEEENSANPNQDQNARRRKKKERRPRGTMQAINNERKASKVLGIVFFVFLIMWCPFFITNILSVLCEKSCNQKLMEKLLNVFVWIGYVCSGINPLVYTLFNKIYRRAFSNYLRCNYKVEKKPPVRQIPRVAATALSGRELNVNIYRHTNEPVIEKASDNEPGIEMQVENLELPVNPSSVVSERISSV

`CN1C[C@@H](NS(=O)(=O)N(C)C)C[C@@H]2c3cccc4c3c(cn4C)C[C@H]21` [[^3H]mesulergine, reference compound] showed a Kd of 1.9 nM.
